Measurements taken from article PMC12445440 (Journal of Medical Virology, 2025).

Columns and labels:
[1] = tested on: RTN3; assay: Western blot of ER proteins in Huh-7 cells: RTN3; settings: 6 μM PS1097 or 15 μM SOF, 48 h
[2] = tested on: RTN3 mRNA; assay: qRT-PCR of RTN3 mRNA in treated cells; type: cell-based, human; settings: 6 μM PS1097 or 15 μM SOF, 48 h, relative to GAPDH

SMILES	RTN3 protein content (western blot) [1]	Reduction in RTN3 mRNA (qRT-PCR) [2]
O=c1[nH]c2cc3cccnc3c(Cl)c2nc1-c1cccs1 [PS1097, 5‐chloro‐3‐(thiophen‐2‐yl) pyrido[2,3‐g] quinoxalin‐2(1H)‐one]	significant decrease	approximately 50%
CC(C)OC(=O)[C@H](C)N[P@](=O)(OC[C@H]1O[C@@H](n2ccc(=O)[nH]c2=O)[C@](C)(F)[C@@H]1O)Oc1ccccc1 [SOF, Sofosbuvir, reference compound]	did not affect	roughly 25%
